Assay results reported in paper PMC5733478, “A Non-imaging High Throughput Approach to Chemical Library Screening at the Unmodified Adenosine-A3 Receptor in Living Cells” (Frontiers in Pharmacology, 2017).
Structures can show the parent of a compound that is named as a salt.

Sequences of proteins named here, by UniProt entry; tags and fusion partners are left off.
UniProt P0DMS8, whole entry: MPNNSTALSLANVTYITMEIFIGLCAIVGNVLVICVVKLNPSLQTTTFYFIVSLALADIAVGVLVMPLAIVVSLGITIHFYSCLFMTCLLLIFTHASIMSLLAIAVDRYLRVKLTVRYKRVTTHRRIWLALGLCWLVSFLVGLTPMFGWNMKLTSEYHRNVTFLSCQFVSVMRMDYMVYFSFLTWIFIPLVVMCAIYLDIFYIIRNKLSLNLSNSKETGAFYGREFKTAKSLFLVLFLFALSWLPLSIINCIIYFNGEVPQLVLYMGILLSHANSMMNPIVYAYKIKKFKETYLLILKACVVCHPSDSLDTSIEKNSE

molecular target: human A3AR (Homo sapiens, UniProt P0DMS8); test: LOPAC library primary screen: single concentration (10 μM) inhibition of 25 nM CA200645 binding, PHERAstar FS

**Q.** How did the “% 25 nM CA200645 binding” value turn out when `CCCn1c(=O)c2[nH]c(C3CCCC3)nc2n(CCC)c1=O` [8-Cyclopentyl-1,3-dipropylxanthine] was run?
**A.** The value was 56.3 ± 3.4%.

**Q.** Which “% Total CA200645 binding” value does the source give for `CNC(=O)[C@H]1O[C@@H](n2cnc3c(NCc4cccc(I)c4)nc(Cl)nc32)[C@H](O)[C@@H]1O` [2-Cl-IB-MECA, reference compound] here?
**A.** Its value is 32.3 ± 6.1%.

**Q.** For `CCNC(=O)[C@H]1O[C@@H](n2cnc3c(N)ncnc32)[C@H](O)[C@@H]1O` [5'-N-Ethylcarboxamidoadenosine], which “% 25 nM CA200645 binding” value is on record?
**A.** Its value is 38.1 ± 4.3%.

**Q.** How did the “% 25 nM CA200645 binding” value turn out when `CNC(=O)[C@H]1O[C@@H](n2cnc3c(NCc4cccc(I)c4)nc(Cl)nc32)[C@H](O)[C@@H]1O` [Chloro-IB-MECA] was run?
**A.** The value was 32.3 ± 6.1%.

**Q.** How did the “% Total CA200645 binding” value turn out when `CCNC(=O)[C@H]1O[C@@H](n2cnc3c(N)ncnc32)[C@H](O)[C@@H]1O` [NECA, reference compound] was run?
**A.** Its value is 38.1 ± 4.3%.

**Q.** Which “% 25 nM CA200645 binding” value does the source give for `CCNC(=O)[C@H]1O[C@@H](n2cnc3c(N)nc(NCCc4ccc(CCC(=O)O)cc4)nc32)[C@H](O)[C@@H]1O.Cl` [CGS-21680 hydrochloride] here?
**A.** The value was 65.7 ± 8.4%.

**Q.** For `CCCn1c(=O)c2[nH]c(C3CCCC3)nc2n(CCC)c1=O` [DPCPX, reference compound], which “% Total CA200645 binding” value is on record?
**A.** The value was 56.3 ± 3.4%.

**Q.** For `CN(C)CCOC(c1ccccc1)c1ccccc1` [Diphenhydramine hydrochloride], which “% 25 nM CA200645 binding” value is on record?
**A.** Its value is 101.8 ± 15.9%.

**Q.** Which “% 25 nM CA200645 binding” value does the source give for `CC(Cc1ccc(O)cc1)NCC(O)c1cc(O)cc(O)c1` (stereo not drawn) [Fenoterol hydrobromide] here?
**A.** The value was 81.9 ± 17.1%.
